Measured values reported in ChEMBL document CHEMBL1154241, “A QSAR study on relationship between structure of sulfonamides and their carbonic anhydrase inhibitory activity using the eigenvalue (EVA) method” (Eur J Med Chem, 2009).

Biological target: Carbonic anhydrase 2 (Homo sapiens) (UniProt P00918)
Assay: Inhibition of carbonic anhydrase 2 assessed as inhibition of carbon dioxide hydration

NS(=O)(=O)c1ccc(C/N=C/c2cc([N+](=O)[O-])c([N+](=O)[O-])c([N+](=O)[O-])c2)cc1
logKi: 1.3
